According to patent US9522903B2 (priority 2010, dated 2016):

Tested on: murine model of acute chlorine inhalation injury (CILI)
Details: Balb/c mice, 400 ppm Cl2 30 min, 30 mg/kg/dose IP q12h from 15 min after exposure, at 24 h

Substance: 2-cyano-1-(1-hydroxy-2,2,5,5-tetramethylpyrrolidin-3-yl)-3-(pyridin-3-yl)guanidine
- reduction of the elevation in lung MPO (PMN infiltration) relative to placebo (D5W) (p<0.0001, FIG. 5A): 52%
- reduction of histologic lung damage relative to placebo (D5W) (p<0.001, FIG. 5B): 43%
